This note sets out measurements from ChEMBL document CHEMBL1142276, “Synthesis, cannabinoid receptor affinity, and molecular modeling studies of substituted 1-aryl-5-(1H-pyrrol-1-yl)-1H-pyrazole-3-carboxamides” (J Med Chem, 2008).

The chains behind the UniProt entries cited, without tags or fusion partners.
UniProt P21554, whole entry: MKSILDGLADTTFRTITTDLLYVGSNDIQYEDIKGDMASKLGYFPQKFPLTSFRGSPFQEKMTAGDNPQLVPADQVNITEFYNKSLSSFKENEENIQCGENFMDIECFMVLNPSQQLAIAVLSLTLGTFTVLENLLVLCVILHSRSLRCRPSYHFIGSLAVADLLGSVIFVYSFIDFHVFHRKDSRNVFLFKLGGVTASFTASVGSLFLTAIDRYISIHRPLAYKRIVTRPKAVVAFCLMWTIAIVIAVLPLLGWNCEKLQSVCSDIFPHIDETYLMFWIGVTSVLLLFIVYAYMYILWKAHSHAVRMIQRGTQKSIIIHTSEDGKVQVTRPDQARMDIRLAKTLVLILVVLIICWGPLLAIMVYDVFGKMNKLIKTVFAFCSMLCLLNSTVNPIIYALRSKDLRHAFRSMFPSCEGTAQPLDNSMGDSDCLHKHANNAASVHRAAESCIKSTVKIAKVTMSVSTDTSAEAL

The target in this assay is Cannabinoid receptor 1 (Homo sapiens, UniProt P21554). In words: biochemical. It counts as cell-based, HEK293.

Compound `Cc1ccc(Cn2nc(C(=O)N[C@@H]3C(C)(C)[C@@H]4CC[C@@]3(C)C4)cc2-c2ccc(Cl)c(C)c2)cc1` [SR-144528] showed a Ki above 2820 nM.
